Experimental data as given in patent US6884809B2 (Cornell Research Foundation, Inc., priority 2001, dated 2005).

System: Na+/H+ exchanger (NHE)
Experiment: NHE activity: Na+-dependent pHi recovery after NH4Cl acid pulse in BCECF-loaded SKNMC-H3 cells
Type: cell-based, human
Settings: imetit 100 nM, n=277 cells, control 0.074

N=C(N)SCCc1c[nH]cn1 [imetit, Imetit]
mean rate of Na+-dependent pHi recovery (NHE activity): 0.048±0.002 pHi units/min
